Patent US20080176907A1, “NOS Inhibitors For Treatment Of Motor Deficit Disorders” (Northwestern University, priority 2006, published 2008)

Experiments:
eNOS [1] = target: T1, eNOS (Bos taurus, UniProt P29473); settings: read-out: Ki eNOS
eNOS [2] = target: T1, eNOS; assay: biochemical

Row | SMILES | Ki (eNOS [1]) | Ki (eNOS [2])
1 | N=C(NCCC[C@H](N)C(=O)N[C@H]1CN[C@H](C(N)=O)C1)N[N+](=O)[O-] [compound 3] | 128 µM | 
2 | N=C(NCCC[C@H](N)C(=O)O)N[N+](=O)[O-] [εNNA, L-N^ω-nitroarginine] |  | 0.75 µM

Read-outs that look alike come from different tables or passages of the source.
